pIC50: −log10 of the molar value.
Assays:
[1] = Metabolic stability with human hepatocytes; conditions: human hepatocyte suspension, 1 μM, scaled by well stirred model
[2] = target: cytochrome P450 2C19 (Homo sapiens (Human), UniProt P33261); assay: Cytochrome P450 2C19 inhibition; type: in vitro ADME; conditions: read-out: CYP2C19 IC50; human liver microsomes, (S)-Mephenytoin hydroxylation
[3] = Metabolic stability with human liver microsomes; conditions: pooled human liver microsomes 1 mg/ml, test compound 1 μM, 37° C., NADPH

Chains of the proteins cited; added tags and fusions are not shown.
UniProt P33261, whole entry: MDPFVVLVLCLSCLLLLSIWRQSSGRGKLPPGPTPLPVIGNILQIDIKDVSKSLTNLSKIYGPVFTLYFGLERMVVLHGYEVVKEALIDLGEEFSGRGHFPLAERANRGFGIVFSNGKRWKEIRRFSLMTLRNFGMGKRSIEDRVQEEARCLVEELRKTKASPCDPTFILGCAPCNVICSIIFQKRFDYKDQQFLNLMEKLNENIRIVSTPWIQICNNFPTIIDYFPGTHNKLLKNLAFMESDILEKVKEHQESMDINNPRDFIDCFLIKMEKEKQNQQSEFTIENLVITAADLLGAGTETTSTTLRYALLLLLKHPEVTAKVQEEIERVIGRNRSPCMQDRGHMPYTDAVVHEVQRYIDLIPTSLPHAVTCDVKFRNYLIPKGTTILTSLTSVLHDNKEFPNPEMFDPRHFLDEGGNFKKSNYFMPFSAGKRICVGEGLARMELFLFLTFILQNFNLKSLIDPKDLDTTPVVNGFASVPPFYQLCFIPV

CL (predicted human hepatic in vivo blood clearance) [1]: 10 mL/min/kg | pIC50 [2]: 5.14 | t1/2 INVITRO [3]: 1.23 h
Compound: CC(=O)C1=C(C)N(c2cccc(C(F)(F)F)c2)C(=O)N[C@H]1C#N
